Patent publication US12414996B2, “Organic anion transporting peptide-based cancer imaging and therapy” (Da Zen Theranostics, Inc., priority 2014, dated 2025)

Conditions: prevention and inhibition studies, subcutaneous PC3 and MIAPaCa tumors; 10 mg/kg twice a week i.p.
Description: (§1) Arrows indicate the onset of treatments. * p<0.05; ** p<0.01; *** p<0.001.
as §1

IR-783-gemcitabine [DZ-1-gemcitabine]
impact on mouse body weights: less impact on mouse body weights, as compared with Gemcitabine
